This assay has as its target E. coli GUS (Escherichia coli, UniProt P05804). It is filed as biochemical. The conditions noted are these: purified L1 enzyme, in vitro.

By UniProt entry, the sequences of proteins in these tests, tags left out. Where a name states a change or a piece, a line headed by the entry shows the natural chain unless it says otherwise.
UniProt P05804: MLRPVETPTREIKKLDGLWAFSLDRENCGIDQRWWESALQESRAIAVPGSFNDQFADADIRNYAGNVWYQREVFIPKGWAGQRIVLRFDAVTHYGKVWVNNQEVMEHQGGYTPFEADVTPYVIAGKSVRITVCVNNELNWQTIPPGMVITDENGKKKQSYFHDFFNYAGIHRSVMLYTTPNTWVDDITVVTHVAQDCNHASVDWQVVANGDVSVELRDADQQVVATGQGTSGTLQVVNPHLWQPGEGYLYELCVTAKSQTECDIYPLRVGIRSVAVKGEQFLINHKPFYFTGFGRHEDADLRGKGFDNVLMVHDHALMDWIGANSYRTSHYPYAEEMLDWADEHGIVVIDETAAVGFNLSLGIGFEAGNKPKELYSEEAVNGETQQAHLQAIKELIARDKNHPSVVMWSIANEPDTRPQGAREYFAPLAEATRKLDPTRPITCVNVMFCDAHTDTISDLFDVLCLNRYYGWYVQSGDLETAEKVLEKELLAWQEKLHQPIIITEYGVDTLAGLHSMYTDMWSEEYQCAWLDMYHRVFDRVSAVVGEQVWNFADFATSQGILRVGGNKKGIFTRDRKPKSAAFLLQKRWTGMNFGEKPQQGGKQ

Take `CCOc1ccc(NC(=S)N(CCO)Cc2cc3cc(C)cc(C)c3[nH]c2=O)cc1` [Inh1, reference compound]: the “inhibition of SN-38-G processing (apparent kcat)” value was “strong activity”.

Values taken from patent US20200010479A1, “INHIBITORS OF MICROBIAL BETA-GLUCURONIDASE ENZYMES AND USES THEREOF” (THE UNIVERSITY OF NORTH CAROLINA AT CHAPEL HILL, priority 2017, published 2020).
